According to patent US4735954A, “Anti-rheumatic agent” (priority 1985, dated 1988):

Experiment: acute toxicity in rats
Settings: rat, in vivo, po, Male
From the text: This invention has been achieved by our discovery of the prominent effect of KC-404 on adjuvant-induced arthritis which is an experimental model of the articular rheumatism. […] The results in Experiment 1 are predictable for the clinical effects of KC-404.

Which LD50 does the source give for `CC(C)C(=O)c1c(C(C)C)nn2ccccc12` [KC-404, 3-isobutyryl-2-isopropylpyrazalo[1,5-a]pyridine] here?
Its LD50 is 1340 mg/kg.
